Results reported in US20230233305A1, “METHOD OF AMELIORATING OR TREATING INFLAMMATORY IN AN ORAL CAVITY” (priority 2022, published 2023).

Settings: 0th to 6th weeks; cats; 200 ng/kg oral

Question: With vitamin D [fat-soluble vitamin D] as the substance, how does the “amount of vitamin D (25-(OH)-D3) in the serum” value read?
Answer: the highest
